Test results from patent publication US10933063B2 (priority 2017, dated 2021).

By UniProt entry, the sequences of proteins in these tests, tags left out. Where a name states a change or a piece, a line headed by the entry shows the natural chain unless it says otherwise.
UniProt Q06187, whole entry, looked up, species assumed: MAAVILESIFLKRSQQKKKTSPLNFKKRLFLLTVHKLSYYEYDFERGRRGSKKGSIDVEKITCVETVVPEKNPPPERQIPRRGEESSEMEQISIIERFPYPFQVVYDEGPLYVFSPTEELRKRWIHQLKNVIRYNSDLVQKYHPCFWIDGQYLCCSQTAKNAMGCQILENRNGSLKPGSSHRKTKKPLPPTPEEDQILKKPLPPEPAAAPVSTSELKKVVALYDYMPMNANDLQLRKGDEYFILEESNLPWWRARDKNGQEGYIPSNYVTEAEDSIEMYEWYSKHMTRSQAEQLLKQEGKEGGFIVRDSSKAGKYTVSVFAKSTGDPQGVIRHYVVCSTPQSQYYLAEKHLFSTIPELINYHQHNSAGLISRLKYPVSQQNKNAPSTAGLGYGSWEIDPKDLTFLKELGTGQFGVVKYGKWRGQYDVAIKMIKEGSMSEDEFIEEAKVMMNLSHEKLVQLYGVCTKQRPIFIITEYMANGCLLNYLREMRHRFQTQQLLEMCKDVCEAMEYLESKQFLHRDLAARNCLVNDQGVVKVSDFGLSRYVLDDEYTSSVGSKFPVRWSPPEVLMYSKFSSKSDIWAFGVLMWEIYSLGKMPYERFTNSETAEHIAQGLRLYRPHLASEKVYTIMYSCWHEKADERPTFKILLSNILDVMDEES
UniProt P42680: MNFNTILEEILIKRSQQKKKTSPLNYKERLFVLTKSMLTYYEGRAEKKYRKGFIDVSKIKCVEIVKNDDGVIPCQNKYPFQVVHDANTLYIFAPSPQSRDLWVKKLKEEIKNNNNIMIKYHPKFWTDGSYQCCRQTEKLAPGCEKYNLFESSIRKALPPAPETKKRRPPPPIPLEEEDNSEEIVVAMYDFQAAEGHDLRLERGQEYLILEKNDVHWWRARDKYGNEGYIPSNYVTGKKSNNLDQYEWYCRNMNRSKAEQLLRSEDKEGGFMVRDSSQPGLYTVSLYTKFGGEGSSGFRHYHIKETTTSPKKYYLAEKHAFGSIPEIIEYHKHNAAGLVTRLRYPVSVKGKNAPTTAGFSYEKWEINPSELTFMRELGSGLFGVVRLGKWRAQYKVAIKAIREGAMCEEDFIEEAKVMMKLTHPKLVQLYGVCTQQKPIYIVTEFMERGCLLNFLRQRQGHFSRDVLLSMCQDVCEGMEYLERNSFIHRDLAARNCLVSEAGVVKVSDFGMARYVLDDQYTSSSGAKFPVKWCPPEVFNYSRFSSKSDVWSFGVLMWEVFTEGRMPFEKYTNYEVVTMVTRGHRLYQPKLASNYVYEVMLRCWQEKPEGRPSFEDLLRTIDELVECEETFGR
UniProt P07948, whole entry, looked up, species assumed: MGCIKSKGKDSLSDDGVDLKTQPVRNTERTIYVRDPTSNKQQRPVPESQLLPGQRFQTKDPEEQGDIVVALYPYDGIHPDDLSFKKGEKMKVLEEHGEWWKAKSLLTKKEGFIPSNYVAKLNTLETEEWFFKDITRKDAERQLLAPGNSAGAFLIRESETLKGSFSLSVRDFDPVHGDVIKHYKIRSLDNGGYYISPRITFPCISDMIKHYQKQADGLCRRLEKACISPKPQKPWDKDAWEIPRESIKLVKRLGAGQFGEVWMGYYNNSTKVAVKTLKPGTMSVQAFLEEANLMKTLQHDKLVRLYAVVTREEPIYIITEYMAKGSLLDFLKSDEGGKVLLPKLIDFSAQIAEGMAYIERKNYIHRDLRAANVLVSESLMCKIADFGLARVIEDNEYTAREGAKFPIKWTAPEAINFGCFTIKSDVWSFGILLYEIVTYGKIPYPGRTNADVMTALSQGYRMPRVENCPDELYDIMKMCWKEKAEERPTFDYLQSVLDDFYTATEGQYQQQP
UniProt P06239, whole entry, looked up, species assumed: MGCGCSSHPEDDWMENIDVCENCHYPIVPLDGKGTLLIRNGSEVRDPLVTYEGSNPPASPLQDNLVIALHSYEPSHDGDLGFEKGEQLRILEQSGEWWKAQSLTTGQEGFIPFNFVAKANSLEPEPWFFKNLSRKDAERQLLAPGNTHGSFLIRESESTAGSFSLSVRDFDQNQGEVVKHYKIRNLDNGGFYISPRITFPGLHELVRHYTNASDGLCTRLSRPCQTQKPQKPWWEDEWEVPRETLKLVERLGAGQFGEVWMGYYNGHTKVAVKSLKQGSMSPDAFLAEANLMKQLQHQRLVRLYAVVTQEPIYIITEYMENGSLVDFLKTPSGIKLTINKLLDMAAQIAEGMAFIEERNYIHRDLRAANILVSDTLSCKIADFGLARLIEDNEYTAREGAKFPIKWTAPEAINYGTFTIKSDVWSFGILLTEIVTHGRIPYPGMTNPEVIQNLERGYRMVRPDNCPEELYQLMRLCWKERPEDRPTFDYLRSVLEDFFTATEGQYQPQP
UniProt Q08881, whole entry, looked up, species assumed: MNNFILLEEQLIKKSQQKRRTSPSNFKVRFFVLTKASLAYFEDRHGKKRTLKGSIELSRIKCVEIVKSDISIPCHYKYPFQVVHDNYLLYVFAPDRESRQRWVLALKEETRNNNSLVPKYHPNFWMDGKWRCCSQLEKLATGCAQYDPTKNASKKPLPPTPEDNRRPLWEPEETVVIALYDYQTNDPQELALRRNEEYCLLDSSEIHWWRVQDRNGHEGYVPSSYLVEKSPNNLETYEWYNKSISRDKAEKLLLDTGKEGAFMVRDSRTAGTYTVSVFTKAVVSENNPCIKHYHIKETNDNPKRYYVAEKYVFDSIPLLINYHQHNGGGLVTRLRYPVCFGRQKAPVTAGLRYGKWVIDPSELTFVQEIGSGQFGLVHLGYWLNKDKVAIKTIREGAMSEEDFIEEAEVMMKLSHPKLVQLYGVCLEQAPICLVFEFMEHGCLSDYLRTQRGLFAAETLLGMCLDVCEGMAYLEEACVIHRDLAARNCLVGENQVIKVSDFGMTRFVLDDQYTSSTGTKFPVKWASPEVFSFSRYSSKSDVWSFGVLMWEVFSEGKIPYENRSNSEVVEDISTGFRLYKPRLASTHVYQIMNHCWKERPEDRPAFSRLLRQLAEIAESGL

Legend:
BTK [1] = biological target: T1, BTK (Homo sapiens (Human), UniProt Q06187); conditions: read-out: BTK IC50
BTK [2] = biological target: T1, BTK; test: biochemical
TEC = TEC (Homo sapiens (Human), UniProt P42680); test: biochemical
LYN = LYN (Homo sapiens (Human), UniProt P07948); test: biochemical
LCK = LCK (Homo sapiens (Human), UniProt P06239); test: biochemical
ITK = ITK (Homo sapiens (Human), UniProt Q08881); test: biochemical

`CC#CC(=O)N1CCCC[C@H]1c1nc(-c2ccc(Oc3cccc(OC)c3F)cc2)c2c(C)nccn12` [Example 5, (S)-1-(2-(1-(4-(2-Fluoro-3-methoxyphenoxy)phenyl)-8-methylimidazo[1,5-a]pyrazin-3-yl)piperidin-1-yl)but-2-yn-1-one] showed an IC50 (BTK [1]) of 10 to 100 nM, an IC50 (BTK [2]) of 10 to 100 nM and an IC50 (TEC) of 100 to 1000 nM. The IC50 (LYN) was over 10 µM, the IC50 (LCK) was over 10 µM and the IC50 (ITK) was over 10 µM.
Work on `COc1cccc(Oc2ccc(-c3nc(C4CCC5CCN(C)C(=O)N5C4)n4ccncc34)cc2)c1F` (centres unmarked) [Example 214, 7-(1-(4-(2-fluoro-3-methoxyphenoxy)phenyl)imidazo[1,5-a]pyrazin-3-yl)-2-methyloctahydro-1H-pyrido[1,2-c]pyrimidin-1-one] yielded an IC50 (BTK [2]) of 100 to 1000 nM.
Compound `C=CC(=O)N1CCCC[C@H]1c1nc(-c2ccc(Oc3cccc(OC)c3F)cc2)c2cnccn12` [Example 6, (S)-1-(2-(1-(4-(2-Fluoro-3-methoxyphenoxy)phenyl)imidazo[1,5-a]pyrazin-3-yl)piperidin-1-yl)prop-2-en-1-one] has an IC50 (BTK [2]) of under 10 nM.

Where two headings read alike, the source gives them in different places.
